From ChEMBL document CHEMBL3774321, “Systematic diversification of benzylidene heterocycles yields novel inhibitor scaffolds selective for Dyrk1A, Clk1 and CK2” (Eur J Med Chem, 2016)

Legend:
Homo sapiens [1] = species: Homo sapiens; experiment: Selectivity ratio of IC50 for recombinant human GST-tagged CLK1 catalytic domain (129 to 484 residues) expressed in Escherichia coli to IC50 for recombinant human N-terminal His6-tagged DYRK1A catalytic domain expressed in Escherichia coli BL21(DE3) cells
Homo sapiens [2] = species: Homo sapiens; experiment: Selectivity ratio of IC50 for full length recombinant human GST-tagged DYRK1B expressed in insect cells to IC50 for recombinant human N-terminal His6-tagged DYRK1A catalytic domain expressed in Escherichia coli BL21(DE3) cells

SMILES	Ratio IC50 (Homo sapiens [1])	Ratio IC50 (Homo sapiens [2])
COc1ccc(/C=C2/SC(=S)NC2=O)cc1	23	–
COc1ccc(/C=C2\CC(C)OC2=O)cc1 (configuration not stated)	–	9
